Source: US20070110714A1 (priority 2003, published 2007)

Assays:
[1] = system: Monocyte-derived DCs from HCV-infected patients (HCV-DC); experiment: MICA/B expression in stimulated DC by flow cytometry (HCV-DC); type: cell-based, human; conditions: HCV-DC stimulated 24 hours with cytokine at day 6
Text: (§1) 15 healthy volunteers and 20 chronic HCV-infected patients were used as test subjects. […] Serum alanine amino transferase (ALT)level was periodically measured, and HCV-infected patients were classified into two groups depending on the extent of necrotic inflammatory hepatic disease. Patients (n=10) showing persistent or fluctuant ALT increase were defined to be included in CH-1 group, and other patients (n=10) persistently showing normal ALT for 2 years or more were defined to be included in CH-2 group. Monocyte-derived DCs were produced from peripheral vein blood of the healthy volunteers and chronic HCV-infected patients. […]
(§2) DCs (5×10^5) were incubated at 4° C. for 30 minutes together with an anti-MICA/B monoclonal antibody (6D4) (Science 279: 1737, 1998). […] The cells were analyzed by flow cytometory using FACScan system (BD-Pharmingen), and the data were analyzed using CELL Quest (trade name) software.
Whether MICA/B is induced by various cytokines or not was investigated in DCs derived from healthy donors and HCV-infected patients having or not having ALT abnormality. […] Then, MICA/B expression was analyzed by flow cytometry. […]
Next, N-DC and HCV-DC were stimulated for 24 hours with 50 ng/ml IL-15 in the presence or absence of an anti-IFNa/βR neutralization antibody (30 μg/mL), then, MICA/B expression was analyzed by flow cytometry. […]

[2] = system: Monocyte-derived DCs from healthy donors (N-DC); experiment: MICA/B expression in stimulated DC by flow cytometry (N-DC); type: cell-based, human; conditions: N-DC stimulated 24 hours with cytokine at day 6
Text: as §1, §2
Whether MICA/B is induced by various cytokines or not was investigated in DCs derived from healthy donors and HCV-infected patients having or not having ALT abnormality. […] Then, MICA/B expression was analyzed by flow cytometry.
N-DC was cultured for 24 hours together with 1000 U/ml IFNa in the presence or absence of an anti-IL-15 antibody (30 μg/mL) or an anti-IL-15Ra neutralization antibody (30 μg/mL), then, MICA/B expression was analyzed by flow cytometry. […]

Q: How did the MICA/B expression [1] turn out when “IFNβ: interferon beta (Toray Industries)” was run?
A: did not express MICA/B

Q: What about the MICA/B expression [2] of the same substance?
A: express MICA/B
